Tested on: IL-12 (TYK2/JAK2) induced pSTAT4
Experiment: Phospho-STAT inhibition in lymphocytes, IL-12, mouse WT
Format: cell-based, mouse (C57BL/6)
Details: human vs mouse WT leukocytes

C[C@@H]1CCN(C(=O)CC#N)C[C@@H]1N(C)c1ncnc2[nH]ccc12 [Tofacitinib, reference compound]
difference in IL-12-induced pSTAT4 potency across species: <two-fold difference

Reference: PMC7265552 (Scientific Reports, 2020)
